Experimental data published in publication PMC6225275 (Molecules : A Journal of Synthetic Chemistry and Natural …, 2018).

Sequences of proteins named here, by UniProt entry; tags and fusion partners are left off. Residues count along the entry.
UniProt P22303, 32-614: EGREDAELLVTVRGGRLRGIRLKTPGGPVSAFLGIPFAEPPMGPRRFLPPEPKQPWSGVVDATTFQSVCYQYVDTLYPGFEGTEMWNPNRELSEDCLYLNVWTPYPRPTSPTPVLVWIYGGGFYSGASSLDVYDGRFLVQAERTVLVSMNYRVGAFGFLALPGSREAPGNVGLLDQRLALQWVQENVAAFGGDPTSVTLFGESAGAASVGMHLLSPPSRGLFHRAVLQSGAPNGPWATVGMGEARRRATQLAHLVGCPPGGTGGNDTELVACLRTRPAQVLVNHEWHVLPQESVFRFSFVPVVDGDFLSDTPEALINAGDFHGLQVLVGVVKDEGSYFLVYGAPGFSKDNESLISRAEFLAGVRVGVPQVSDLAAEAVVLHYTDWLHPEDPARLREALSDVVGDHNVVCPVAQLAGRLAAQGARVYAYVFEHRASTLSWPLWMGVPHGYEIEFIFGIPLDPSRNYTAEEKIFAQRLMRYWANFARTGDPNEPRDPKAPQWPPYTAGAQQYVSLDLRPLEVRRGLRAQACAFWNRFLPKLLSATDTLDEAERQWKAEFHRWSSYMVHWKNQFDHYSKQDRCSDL

Biological target: Recombinant HssAChE (Homo sapiens, UniProt P22303)
Format: biochemical
Details: pH 7.4; read-out: HssAChE IC50 ± SD

Work on `C[n+]1ccccc1/C=N/O` [Compound 1, pralidoxime, reference compound] yielded an IC50 of 878 ± 171 µM.
